These results are taken from patent US20070270428A1, “Use of Cyclooxygenase-2 Inhibitors for the Treatment of Depressive Disorders” (priority 2003, published 2007).

By UniProt entry, the sequences of proteins in these tests, tags left out. Residues count along the entry.
UniProt P23219, 24-599: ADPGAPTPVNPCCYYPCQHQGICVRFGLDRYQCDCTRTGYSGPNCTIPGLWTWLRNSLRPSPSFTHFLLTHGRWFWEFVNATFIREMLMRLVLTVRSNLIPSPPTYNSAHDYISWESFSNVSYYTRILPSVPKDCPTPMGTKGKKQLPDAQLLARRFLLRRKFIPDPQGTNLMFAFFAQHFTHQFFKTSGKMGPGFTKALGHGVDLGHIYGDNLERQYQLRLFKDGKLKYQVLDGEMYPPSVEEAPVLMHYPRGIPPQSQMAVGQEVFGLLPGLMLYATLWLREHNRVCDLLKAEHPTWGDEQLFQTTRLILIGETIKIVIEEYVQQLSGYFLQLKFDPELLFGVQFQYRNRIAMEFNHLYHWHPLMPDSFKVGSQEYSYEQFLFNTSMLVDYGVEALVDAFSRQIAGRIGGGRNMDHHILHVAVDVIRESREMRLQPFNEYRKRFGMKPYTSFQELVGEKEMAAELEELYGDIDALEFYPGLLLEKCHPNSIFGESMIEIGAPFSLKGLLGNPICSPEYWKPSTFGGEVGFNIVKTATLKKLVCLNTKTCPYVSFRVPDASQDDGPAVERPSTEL

The experiment concerns the target COX-1 (Homo sapiens, UniProt P23219). Nature of the experiment: Microsomal assay, COX-1. In kind it is biochemical.

The structures appear in SMILES notation.

A word on the IC50: it is the concentration that inhibits the measured activity by half. In turn, `CCCCOc1nc(-c2ccc(S(C)(=O)=O)cc2)cc(C(F)(F)F)n1` [Example 1.10, 2-Butoxy-4-[4-(methylsulfonyl)phenyl]-6-(trifluoromethyl)pyrimidine] registered a half-inhibitory concentration (IC50) above 30 µM.
